Test results as given in patent US20140127175A1 (ZEALAND PHARMA A S, published 2014).

Key:
[1] = target: human glucagon receptor (human) (UniProt P47871); assay: cell-based or functional assay
[2] = target: human glucagon-like peptide 1 receptor (human) (UniProt P43220); assay: cell-based or functional assay

- EC50 of cAMP formation, HEK293 cells expressing human Glucagon-R [1]: > 1000 nM
- EC50 of cAMP formation, HEK293 cells expressing human GLP-1R [2]: 0.02 nM
Substance: Exendin-4 (from UniProt P26349) (peptide)
